# pIC50: −log10 of the molar value.
# Chains of the proteins cited; added tags and fusions are not shown.
# UniProt P32245, whole entry: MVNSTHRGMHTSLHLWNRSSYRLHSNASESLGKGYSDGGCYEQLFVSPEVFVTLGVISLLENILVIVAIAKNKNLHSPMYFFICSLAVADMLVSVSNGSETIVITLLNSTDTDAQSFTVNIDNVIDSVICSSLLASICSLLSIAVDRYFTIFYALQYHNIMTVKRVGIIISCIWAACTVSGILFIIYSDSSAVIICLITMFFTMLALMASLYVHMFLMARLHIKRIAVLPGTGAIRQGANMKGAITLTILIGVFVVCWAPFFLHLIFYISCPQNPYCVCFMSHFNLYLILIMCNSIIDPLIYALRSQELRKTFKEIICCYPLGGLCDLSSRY
# Target: cloned human MC4R receptors (Homo sapiens, UniProt P32245)
# Experiment: Melanocortin MC4R membrane binding assay ([125I]NDP-α-MSH competition)
# Settings: read-out: MC4R IC50; [125I]NDP-α-MSH 0.1 nM, membranes of Hi5 insect cells or HEK-293 cells, 90 minutes at 37° C.
# Description: Melanocortin MC4R Binding Assay. […] A membrane binding assay was used to identify competitive ligands of [^125I]NDP-α-MSH binding to cloned human MC4R receptors expressed in Hi5 insect cells or HEK-293 cells transfected by a baculovirus/human MC4R receptor construct. The membrane binding buffer was composed of 25 mM HEPES, pH 7.4, 140 mM NaCl, 1.2 mM MgCl2, 2.5 mM CaCl2, and 0.1% BSA Membrane protein (0.5 μg) and [^125I]-NDP-α-MSH (to a final concentration of 0.1 nM) were added. Competing ligands or a buffer blank were added and incubated for 90 minutes at 37° C. After filtration, the cell membranes were evaluated in a Wallac Microbeta Trilux Scintillation and Luminescence Counter (Model 1450). Dose-response cureves were fitted by […] analyses and IC50 values are calculated using ExcelFit. MC4R IC50 values: <250 nM=+++; 250–1000 nM=++; 1000–10000=+.
row,SMILES,pIC50
1,CC(C)N(C(=O)c1ccco1)[C@H]1CCN(C(=O)[C@@H](Cc2ccc(Cl)cc2)NC(=O)[C@@H]2CNCCN2)C1,5.00 to 6.00
2,NCCC(=O)N[C@H](Cc1ccc(Cl)cc1)C(=O)N1CC[C@H](N(C2CCCCC2)S(=O)(=O)c2ccccc2)C1,6.00 to 6.60
3,CN(C)CCC(=O)N[C@H](Cc1ccc(Cl)cc1)C(=O)N1CC[C@H](N(C2CCCC2)S(C)(=O)=O)C1,5.00 to 6.00
4,CC(C)CC(=O)N(C(C)C)[C@H]1CCN(C(=O)[C@@H](Cc2ccc(Cl)cc2)NC(=O)CCN(C)C)C1,5.00 to 6.00

# Source: US7049323B2, “Amidoheterocycles as modulators of the melanocortin-4 receptor” (Bristol-Myers Squibb Company, priority 2003, dated 2006)
